Among the data in patent US9868763B2, “Modulators of protease activated receptors” (The University of Queensland, priority 2011, dated 2018) are EC50 values, retold here.

Sequences of proteins named here, by UniProt entry; tags and fusion partners are left off. Residues count along the entry.
UniProt P55085, 26-397 limits assumed: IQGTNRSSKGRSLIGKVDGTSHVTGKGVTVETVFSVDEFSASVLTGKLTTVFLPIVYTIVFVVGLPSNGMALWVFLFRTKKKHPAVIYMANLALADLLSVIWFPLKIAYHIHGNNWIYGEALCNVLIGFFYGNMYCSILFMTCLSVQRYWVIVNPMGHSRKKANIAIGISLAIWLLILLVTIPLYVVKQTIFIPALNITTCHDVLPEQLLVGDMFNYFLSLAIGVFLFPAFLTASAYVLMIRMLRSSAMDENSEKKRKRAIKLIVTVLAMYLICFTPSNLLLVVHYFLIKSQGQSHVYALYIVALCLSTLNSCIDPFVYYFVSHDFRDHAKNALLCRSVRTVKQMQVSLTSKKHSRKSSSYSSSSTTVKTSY

This test addresses PAR2 (Homo sapiens, UniProt P55085). Description: PAR2 activation: intracellular Ca2+ release (agonist) in HT29 cells. The note with it: agonist or partial agonist of Ca2+ release in HT29 cells.

One may read the EC50 as the midpoint of the concentration-response curve. A higher EC50 goes with weaker potency.

`CC[C@H](C)[C@H](NC(=O)[C@H](CC1CCCCC1)NC(=O)c1ccno1)C(=O)NCc1cccc(C(=O)N[C@@H](CCN)C(N)=O)c1`: the EC50 stood at 200 nM. This counts as sub-micromolar.

For the compound `CC[C@H](C)[C@H](NC(=O)[C@H](CC1CCCCC1)NC(=O)c1ccno1)C(=O)NCc1cccc(C(=O)N[C@@H](CCCN)C(N)=O)c1`, the EC50 amounted to 200 nM. That is a sub-micromolar value.
